For test [1], the target named is BRD4-BD2 (Homo sapiens, UniProt O60885). The test is described as follows: bromoKdELECT assay for binding affinity to BRD4-BD2. As to conditions: binding to BRD4-BD2, Table 5. Here is the method: (§1) Compounds were tested using a bromoKdELECT assay. T7 phage strains displaying bromodomains were grown in parallel in 24-well blocks in an E. coli host derived from the BL21 strain. E. coli were grown to log-phase and infected with T7 phage from a frozen stock (multiplicity of infection=0.4) and incubated with shaking at 32° C. until lysis (90-150 minutes). The lysates were centrifuged (5,000×g) and filtered (0.2 m) to remove cell debris. Streptavidin-coated magnetic beads were treated with biotinylated small molecule or acetylated peptide ligands for 30 minutes at room temperature to generate affinity resins for bromodomain assays. The liganded beads were blocked with excess biotin and washed with blocking buffer (SeaBlock (Pierce), 1% BSA, 0.05% Tween 20, 1 mM DTT) to remove unbound ligand and to reduce nonspecific phage binding. Binding reactions were assembled by combining bromodomains, liganded affinity beads, and test compounds in 1× binding buffer (17% SeaBlock, 0.33×PBS, 0.04% Tween 20, 0.02% BSA, 0.004% Sodium azide, 7.4 mM DTT). Test compounds were prepared as 1000× stocks in 100% DMSO. Kds were determined using an 11-point 3-fold compound dilution series with one DMSO control point. All compounds for Kd measurements are distributed by acoustic transfer (non-contact dispensing) in 100% DMSO. […] The bromodomain concentration in the eluates was measured by qPCR.

Test [2] deals with T-Rex 293 cell line SC3 cells lacking increased expression of androgen receptor protein. As to the kind of experiment: Cellular growth inhibition assay, T-Rex 293 SC3 cells without doxycycline (CellTiter-Glo, 72 hours). As to conditions: T-Rex 293 cell line SC3 cells not exposed to doxycycline (lacking increased androgen receptor expression). The method, then:
(§2) The following types of cells were prepared for this experiment: (i) a T-Rex 293 cell line having increased expression of androgen receptor protein due to exposure to doxycycline and (ii) a T-Rex 293 cell line lacking increased expression of androgen receptor protein. Ability of the test compounds to inhibit proliferation of the foregoing cell types was evaluated according to the procedures set forth below.
(§3) The doxycycline-inducible androgen receptor protein expressing cell line was established using the following protocol: T-Rex 293 cells were purchased from Invitrogen (Cat #R71007) and transfected using Lipofectamine 2000 with the wild-type androgen receptor protein sequence cloned into the pcDNA4/TO vector. Transfected cells were selected using 400 μg/mL Zeocin (Invitrogen Cat #R25001). […] Clones were analyzed for expression of androgen receptor protein in the presence and absence of 10 ng/mL doxycycline (Sigma Cat #D9891), and a single doxycycline-inducible clone (hereinafter “SC3”) was selected for use in downstream assays. […]
(§4) At the end of the treatment duration, cell viability was quantified with CellTiter-Glo 2.0 reagent (Promega Cat #G9243). […] Following incubation, the plates were spun at 3000×g for 30 seconds, then sealed with an optical adhesive cover, and luminescence readings were measured with an EnVision Plate Reader.
(§5) Data was normalized using zero luminescence for baseline. […]

Test [3] deals with T-Rex 293 cell line SC3 cells having increased expression of androgen receptor protein due to exposure to doxycycline. The test is described as follows: Cellular growth inhibition assay, T-Rex 293 SC3 cells with doxycycline (CellTiter-Glo, 72 hours). As to conditions: T-Rex 293 SC3 cells with increased androgen receptor expression due to doxycycline (10 ng/mL). Here is the method: as §2, §3, §4, §5
(ATP-based viability assays read luminescence as a measure of living cells.)

The subject of test [4] is VCaP cells. As to the kind of experiment: Cellular growth inhibition assay for VCaP cells (CellTiter-Glo, 72 hours). Here is the method: VCaP cells were purchased from American Type Cell Culture (ATCC Cat #CRL2876) and then seeded on poly-D-lysine coated, black clear-bottom 384-well plates at 5000/well in 25 μL Dulbecco's Modified Eagle Medium (DMEM) supplemented with 10% w/w Fetal bovine serum (FBS) and 1% w/w Pen-Strep. Pen-Strep is a commercially available mixture of penicillin G and streptomycin, which is used in mammalian cell culture media to prevent bacterial contamination. Dulbecco's Modified Eagle Medium (DMEM) supplemented with 10% w/w fetal bovine serum (FBS) and 1% w/w Pen-Strep is herein referred to as Treatment Medium. Following seeding of cells in the plates, the plates were spun at 300×g for 30 seconds, then equilibrated to room temperature for 30 minutes, and then deposited in a humidified tissue culture incubator maintained at 37° C. with 5% C0-2. […]
as §4, §5

Test [5] deals with T47D cells. As to the kind of experiment: Cellular growth inhibition assay for T47D cells (CellTiter-Glo, 72 hours). To be noted: 72 hours treatment. Here is the method:
T47D cells were purchased from American Type Cell Culture (ATCC Cat #HTB-133) and then seeded on poly-D-lysine coated, black clear-bottom 384-well plates at 3000/well in 25 μL Dulbecco's Modified Eagle Medium (DMEM) supplemented with 10% w/w Fetal bovine serum (FBS), 0.2 units/mL recombinant human insulin (Gibco Cat #12585014), and 1% w/w Pen-Strep. Pen-Strep is a commercially available mixture of penicillin G and streptomycin, which is used in mammalian cell culture media to prevent bacterial contamination. Dulbecco's Modified Eagle Medium (DMEM) supplemented with 10% w/w fetal bovine serum (FBS), 0.2 units/mL recombinant human insulin, and 1% w/w Pen-Strep is herein referred to as Treatment Medium. Following seeding of cells in the plates, the plates were spun at 300×g for 30 seconds, then equilibrated to room temperature for 30 minutes, and then deposited in a humidified tissue culture incubator maintained at 37° C. with 5% CO2. […]
At the end of the treatment duration, cell viability was quantified with CellTiter-Glo 2.0 reagent (Promega Cat #G9243). […] Following incubation, the plates were spun at 3000×g for 30 seconds, then sealed with an optical adhesive cover, and luminescence readings were measured with an EnVision Plate Reader (Perkin Elmer).
as §5

The target in test [6] is BRD4-BD1 (Homo sapiens, UniProt O60885). As to the kind of experiment: bromoKdELECT assay for binding affinity to BRD4-BD1. As to conditions: binding to BRD4-BD1, Table 4. Here is the method:
as §1, with “μm)” for “m)”

Where only a bound is given, the exact number is not on record here.

One may read the Kd as a measure of binding affinity in units of concentration. Usually GI50 stands for the concentration giving 50% growth inhibition. Low readings indicate more potent growth inhibition, high ones less potent growth inhibition.

`Cc1sc2c(c1C)C(c1ccc(OCCOC3CCN(c4ccc(C(=O)N[C@H]5CC[C@H](Oc6ccc(C#N)c(Cl)c6)CC5)nn4)CC3)cc1)=N[C@@H](CC(=O)NC(C)(C)C)c1nnc(C)n1-2`: the dissociation constant (Kd) in test [1] and in test [6] was 50 to 500 nM throughout. In addition, the GI50 in test [2], in test [3], in test [4] and in test [5] was below 500 nM in each case.

The values above are taken from US20260109707A1, “HETEROBIFUNCTIONAL COMPOUNDS AND METHODS OF TREATING DISEASE” (Halda Therapeutics OpCo. Inc., priority 2022, published 2026).
